Experiment: Rat plasma concentrations of buspirone and APAP over time
Source text: It also has agonistic action at presynaptic D2 dopaminergic receptors. Acetaminophen is believed to act by elevating the pain threshold in patients.

In the case of “8-[4-[4-(2-pyrimidinyl)1-piperazinyl]butyl-8-azaspiro(4,5)-decane-7,9-dione [buspirone]”, the “Plasma concentrations over time, alone vs in combination” value is reported as “do not differ significantly whether given alone or in combination”.

Source: patent US6566361B2, “Azapirone pain treatment” (priority 1999, dated 2003)
